The values below are quoted from earlier work in US20170285044A1, “METHODS FOR PREDICTING AND IMPROVING THE SURVIVAL OF GASTRIC CANCER PATIENTS” (Pierian Holdings, Inc., priority 2011, published 2017).

This data set deals with HER2(+) gastric cancers. The conditions noted are these: trastuzumab plus standard chemotherapy; cited from earlier work.

As to trastuzumab: HER2 targeting antibody, the overall response rate is given as 47%.
